From patent publication US20240041840A1 (Areteia Therapeutics, Inc., priority 2020, published 2024)

Tested on: subjects with eosinophilic asthma
Experimental: Pulmonary function is measured by performing a spirometry, which measures forced expiratory volume in is (FEV1), the volume of air moved in the first second of exhalation, this is a well-accepted measure of asthma. Forced vital capacity (FVC) is the total volume of air exhaled during the entire forced expiratory volume (FEV) test. The FEV1/FVC ratio is a calculated measure that may provide a more specific measure of bronchoconstriction, independent of processes such as air trapping. Pulmonary function testing can be tested pre-bronchodilator (after waiting a sufficient time so that all bronchodilator medications have cleared) or post-bronchodilator, typically 15-30 minutes after inhaling a short-acting bronchodilator, such as albuterol. Bronchodilator reversibility (BDR) is calculated and assessed by analyzing FEV1 pre- and post-bronchodilator, and calculating the change both as absolute (ml) and percentage change.
Evaluation of Efficacy: Blood eosinophil count, changes in pulmonary function (FEV1), Asthma Control Questionnaire (ACQ-6), Asthma Control Questionnaire (ACQ-7), Asthma Quality of Life Questionnaire (AQLQ), exhaled nitric oxide, pharyngeal and nasal eosinophil peroxidase were collected periodically during the study. […]

CCCN[C@@H]1CCc2nc(N)sc2C1 [dexpramipexole, (6R)-2-amino-4,5,6,7-tetrahydro-6-(propylamino) benzothiazole]
FEV1 change from Baseline LSM (150 mg/day, Week 16 or Week 18): 0.128 L | Pre-Bronchodilator FEV1 Change from Baseline LSM (Week 16 or Week 18, pooled dexpramipexole arms, <50% AEC reduction at Week 12): 0.140 L
